Literature values, collected in PMC7216583, “Two old drugs, NVP-AEW541 and GSK-J4, repurposed against the Toxoplasma gondii RH strain” (Parasites & Vectors, 2020).

What was measured:
[1] = target: Bcl-2; set-up: method as in library vendor description; conditions: ref library vendor description; cited from earlier work
[2] = target: androgen receptor (AR); conditions: read-out: Ki androgen receptor (AR); ref library vendor description; cited from earlier work
[3] = target: TS; conditions: read-out: Ki TS; ref library vendor description; cited from earlier work
[4] = target: intermediate-conductance Ca2+-activated K+ channel (IKCa1, KCa3.1); conditions: read-out: Kd IKCa1 (KCa3.1); ref library vendor description; cited from earlier work

## CC1(C)CCC(c2ccc(Cl)cc2)=C(CN2CCN(c3ccc(C(=O)NS(=O)(=O)c4ccc(N[C@H](CCN5CCOCC5)CSc5ccccc5)c(S(=O)(=O)C(F)(F)F)c4)cc3)CC2)C1 [ABT-263 (Navitoclax)]
[1]
  pKi: ≥ 9.00

## CC(=O)Nc1ccc(OC[C@](C)(O)C(=O)Nc2ccc([N+](=O)[O-])c(C(F)(F)F)c2)cc1 [Andarine (GTX-007)]
[2]
  pKi: 8.40

## Nc1nc(=O)c2c(CCc3ccc(C(=O)N[C@H](CCC(=O)O)C(=O)O)cc3)c[nH]c2[nH]1 [Pemetrexed (Alimta)]
[3]
  pKi: 8.89

## Clc1ccccc1C(c1ccccc1)(c1ccccc1)n1cccn1 [TRAM-34]
[4]
  pKd: 7.70

pKd, pKi: −log10 of the molar value.
